Among the data in US11773132B2, “Cyclic di-nucleotides as stimulator of interferon genes modulators” (Beijing Xuanyi PharmaSciences Co., Ltd., priority 2017, dated 2023) are EC50 values, retold here.

The chains behind the UniProt entries cited, without tags or fusion partners.
UniProt Q86WV6, whole entry H232R: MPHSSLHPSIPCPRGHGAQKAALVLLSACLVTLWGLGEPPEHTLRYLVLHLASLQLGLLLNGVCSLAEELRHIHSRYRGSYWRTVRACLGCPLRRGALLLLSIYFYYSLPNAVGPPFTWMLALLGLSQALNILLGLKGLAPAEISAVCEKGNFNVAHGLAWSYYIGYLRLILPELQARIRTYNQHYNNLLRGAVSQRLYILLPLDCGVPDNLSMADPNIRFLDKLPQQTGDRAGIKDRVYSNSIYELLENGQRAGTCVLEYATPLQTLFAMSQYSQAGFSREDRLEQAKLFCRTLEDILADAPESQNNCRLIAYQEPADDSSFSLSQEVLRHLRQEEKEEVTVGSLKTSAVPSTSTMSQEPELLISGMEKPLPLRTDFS
UniProt Q86WV6, whole entry R71H/G230A/H232R/R293Q: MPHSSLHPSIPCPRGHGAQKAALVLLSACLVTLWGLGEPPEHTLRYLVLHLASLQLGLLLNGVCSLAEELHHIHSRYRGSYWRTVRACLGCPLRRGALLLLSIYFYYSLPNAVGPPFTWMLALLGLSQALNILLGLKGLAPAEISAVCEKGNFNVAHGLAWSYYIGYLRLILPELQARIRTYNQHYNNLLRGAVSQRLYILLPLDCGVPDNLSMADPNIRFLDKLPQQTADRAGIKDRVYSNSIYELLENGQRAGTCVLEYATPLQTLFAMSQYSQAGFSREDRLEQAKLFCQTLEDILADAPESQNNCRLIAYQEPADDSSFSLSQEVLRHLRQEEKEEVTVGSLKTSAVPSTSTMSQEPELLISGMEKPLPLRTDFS

What all share (assay type): cell-based
The target of experiment [1] is T1, hSTING R232 (Homo sapiens, UniProt Q86WV6, H232R).
T1 construct: host or cells: 293T-Dual hSTING R232 cells
The experiment in a line: 293T-Dual hSTING R232 cells, IRF activation (Quanti-Blue). Particulars: 293T-Dual hSTING R232 cell line, 24 h, OD 620 nm. The procedure:
(§1) A test compound with a serial of dilution was prepared in complete medium, and 50 μL of the compound were added to the corresponding well, and incubated with the cells at 37° C. incubator for 24 hr.
To determine the effect on interferon regulatory factor (IRF) activation, 20 μL of cell culture supernatant was transferred into a fresh 96-well plate, 150 μL of Quanti-Blue was added to each well and incubated at 37° C. for 25 min. OD at 620 nm was recorded, and EC50 was calculated with 4 parameter logistic equation.

The target of experiment [2] is T2, Human STING (Homo sapiens, UniProt Q86WV6, G230A/H232R/R293Q/R71H).
T2 construct: host or cells: THP1-Dual cells (human monocytic reporter line)
The experiment can be described thus: EC50 in THP1-Dual cells, IRF3 reporter (QUANTI-Luc). The following applies: THP1 cell line, 24 h. The procedure: (§2) THP1-Dual cells (obtained from Invivogen) are maintained in RPM11640 medium with 100 µg/ml of Zeocin and 10 µg/ml of blasticidin at 37° C., 5% CO2, compounds were dissolved in sterile PBS (pH7.4) as 20 mM, 0.5×10^6 cells/ml of THP-1 Dual cells were incubated with indicated concentrations of a compound for 24 hours at 37° C., 5% CO2 incubator. QUANTI-Luc and QUANTI-Blue were prepared and used following the manufacturer's instructions. 10 ul of cell culture supernatant were mixed with QUANTI-Luc and immediately measured using Luminometer; 20 ul of supernatant were mixed with QUANTI-Blue, and incubated at 37° C. for 30 minutes, and read at OD620. EC50 was calculated using Prism with 4-parameter dose-response curve fitting (Table 3).

Experiment [3] has as its target T1, hSTING R232. The experiment in a line: 293T-Dual hSTING R232 cells, interferon-β expression (Quanti-Luc). The following applies: 293T-Dual hSTING R232 cell line, 24 h, read-out: IFNb EC50. As for the experimental part: as §1
To evaluate the effect on interferon-β expression, 20 μL of cell culture supernatant were transferred into a fresh 96-half area-well white plate, 30 μL of Quanti-Luc were added to each well, and luminescence was measured immediately with a luminometer. Four parameter logistic equation was used to calculate EC50 (Table 4).

The target of experiment [4] is T2, Human STING. The experiment can be described thus: EC50 in THP1-Dual cells, NF-kB reporter (QUANTI-Blue). Particulars: ECs50 NF-kB, THP1 cell line, 24 h, OD620. As for the experimental part:
as §2

In general, EC50 refers to the concentration that produces a half-maximal response. On to `BP1(=O)OC[C@H]2O[C@@H](n3cnc4c(N)ncnc43)[C@H](F)C2OP(=O)(O)OC[C@H]2O[C@@H](n3cnc4c(N)ncnc43)[C@H](F)[C@@H]2O1` (single isomer, unassigned) [Compound E2], for which the EC50 at hSTING R232 [1] came to 1060 nM; on Human STING [2] it was 800 nM; on hSTING R232 [3], 1630 nM; on Human STING [4], 7960 nM.

As for `BP1(=O)OC[C@H]2O[C@@H](n3cnc4c(N)ncnc43)[C@H](F)C2OP(=O)(O)OC[C@H]2O[C@@H](n3cnc4c(N)ncnc43)[C@H](F)[C@@H]2O1` (single isomer, unassigned) [Compound E1], the EC50 on hSTING R232 [1] amounted to 530 nM; on Human STING [2], 480 nM; at hSTING R232 [3] it was 700 nM; on Human STING [4] it was 2550 nM.
